Target: p38α (Homo sapiens, UniProt Q16539)
Experiment: P38α enzyme inhibition assay (ATF-2 phosphorylation ELISA)
Assay type: biochemical
Conditions: activated p38α, substrate ATF-2, ATP 100 μM, 60 minutes incubation, photometric readout 405 nm; read-out: Kinase assay IC50
Protocol: P38α Enzyme Inhibition Assay:
First the microtiter plates are coated using a dilution of ATF-2, substrate of p38α. Each step is followed by a threefold washing step. As the substrate doesn't cover the whole surface, blocking buffer is used to capture the free binding sites. In the meantime, the test compounds are diluted using the kinase buffer, which contains ATP [100 μM], phosphatase-inhibitors and the activated p38α.
The different dilutions of the test compounds are pipetted on the plate. ATP and the compounds compete for the enzyme's binding site. During an incubation time of 60 minutes ATF-2 is dual phosphorylated at Thr 69/71 by p38α kinase depending on its degree of inhibition. Next the first antibody is added into the wells. This antibody binds specifically at dual phosphorylated ATF-2 (Thr 69/71). Secondary antibody, that is conjugated with alkaline phosphatase, binds at the first one. Finally 4-NPP is given in the wells and after an incubation under cover of darkness it is photometrically analysed (405 nm).

By UniProt entry, the sequences of proteins in these tests, tags left out.
UniProt Q16539, whole entry: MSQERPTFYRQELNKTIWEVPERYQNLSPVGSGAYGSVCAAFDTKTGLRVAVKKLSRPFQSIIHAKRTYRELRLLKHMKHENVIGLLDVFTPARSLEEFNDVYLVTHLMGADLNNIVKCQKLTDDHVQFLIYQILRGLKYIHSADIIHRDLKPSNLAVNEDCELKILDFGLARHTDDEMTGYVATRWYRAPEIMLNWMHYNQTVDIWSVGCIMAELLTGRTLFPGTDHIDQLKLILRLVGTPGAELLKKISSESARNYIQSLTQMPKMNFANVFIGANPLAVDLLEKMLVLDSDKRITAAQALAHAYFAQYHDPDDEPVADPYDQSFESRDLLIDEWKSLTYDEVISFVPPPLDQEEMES

3-(4-(4-Fluorophenyl)-5-(2-(3-methylbutan-2-ylamino)pyridin-4-yl)-1H-imidazol-2-ylthio)propane-1-ol [Example 8j]
IC50: 0.012 µM

From patent US8143294B2, “2-sulfanyl-substituted imidazole derivatives and their use as cytokine inhibitors” (priority 2007, dated 2012)
